The values below are quoted from earlier work in US20160317408A1, “KERATIN FIBRE DYEING METHOD” (ALFA PARF GROUP S.p.A., priority 2015, published 2016).

The conditions of series [1]: Opinion SCCS/1409/11.
The conditions of series [2]: value assigned from SCCS memorandum class; composition containing the dye.

Molecules are shown by their SMILES.

In the case of `Nc1ccc(O)cc1` [p-aminophenol], in series [1], the sensitising power classification entry is “strong”. For the same compound, the “individual sensitisation index value of the dye” value in series [2] is 1.
